Assay results reported in patent US11471428B2, “Method and pharmaceutical composition for treating depression” (ZHEJIANG UNIVERSITY, priority 2017, dated 2022).

Legend:
[1] = test system: spontaneously bursting LHb neurons; assay: Spontaneous bursts of LHb neurons in brain slices, bath application; assay type: cell-based
[2] = test system: lateral habenular neurons; assay: Hyperpolarization-triggered rebound bursts in LHb brain slices; assay type: cell-based
[3] = mibefradil 10 μM bath application

Row | SMILES | spontaneous bursts ([1]; ketamine 100 μM bath applied) | probability of neuron hyperpolarization-induced burst ([2]; ketamine 100 μM) | amplitude of plateau potential of spontaneous bursts [1, 3] | bursting probability of spontaneous bursts [1, 3] | probability of neuron hyperpolarization-induced burst ([2]; mibefradil 10 μM)
1 | CNC1(c2ccccc2Cl)CCCCC1=O (centres unmarked) [ketamine] | almost completely eliminated spontaneous bursts | 0.19 |  |  | 
2 | COCC(=O)O[C@]1(CCN(C)CCCc2nc3ccccc3[nH]2)CCc2cc(F)ccc2[C@@H]1C(C)C [mibefradil] |  |  | reduced the amplitude of plateau potential | effectively decreased the bursting probability | 0.05
